Measured values taken from patent publication US9981906B2, “Trans-clomiphene metabolites and uses thereof” (Repros Therapeutics Inc., priority 2011, dated 2018).

Test system: cryopreserved hepatocytes from Beagle dog
Test: Metabolite profile of Androxal in cryopreserved Beagle dog hepatocytes
Assay type: in vitro ADME
Settings: incubations containing 30 mM Androxal for 1 hour; LC/MS
Experimental: A study was conducted to determine the metabolic profile of Androxal® in cryopreserved hepatocytes from Sprague-Dawley rat, Beagle dog, cynomolgus monkey, and human. The liver is the main site of drug metabolism and the full complement of hepatic drug metabolizing enzymes (including liver enzymes of the CYP P450 family) are maintained within the intact cell. Isolated liver hepatocytes constitute a physiologically relevant experimental model for the evaluation of liver-related drug properties such as metabolism. Cyropreservation of the hepatocytes greatly enhances their availability for studies.
Primary hepatocytes isolated from several donors for each animal species and five human donors were pooled according to species and cryopreserved. The hepatocytes were thawed, subjected to Percoll density gradient centrifugation to remove debris and counted to determine yield. Viability was measured using Trypan blue exclusion. The hepatocytes were diluted with CYP assay buffer (Krebs-Hensleit Buffer) to prepare a 2× cell suspension of 2.0×10^6 viable cells/ml. […]
The incubations were terminated as follows: Metabolic positive control incubations were terminated by adding an equal volume of methanol. […] The samples were either immediately analyzed or stored in cryovials at −70°±10 C until analysis.
All samples were analyzed by reverse-phase HPLC. […]

Question: CCN(CC)CCOc1ccc(C(c2ccc(O)c(O)c2)C(Cl)c2ccccc2)cc1 (stereo not shown) [C26H30NO3Cl] was tested. Which “relative amount, Beagle dog” value did it give?
Answer: 117.3
